These are literature values, as cited in publication PMC11284792, “Backbone-Determined Antiarrhythmic Structure–Activity Relationships for a Mirror Image, Oligomeric Depsipeptide Natural Product” (Journal of Medicinal Chemistry, 2024).

The conditions of this data set: companion study; cited from earlier work.

Regarding “(3R,6S,9R,12S,15R,18S,21R,24S)-3,4,9,10,15,16,19,21,22-nonamethyl-6,12,18,24-tetrapentyl-1,7,13-trioxa-4,10,16,19,22-pentaazacyclotetracosan-2,5,8,11,14,17,20,23-octaone [3.1]”, the “Passive permeability measured by PAMPA (in words)” value was “favorable passive permeability”.
On to “(3R,6S,9R,12S,15R,18S,21R,24S)-3,4,9,10,15,16,21,22-octamethyl-6,12,18,24-tetrapentyl-1,7,13-trioxa-4,10,16,19,22-pentaazacyclotetracosan-2,5,8,11,14,17,20,23-octaone [2.1]”, for which the “Passive permeability measured by PAMPA (in words)” value is reported as “favorable passive permeability”.
